Data on six compounds can be found in US6936585B2, “Corticotropin releasing factor 2 receptor agonists” (priority 2002, dated 2005).

Some results are limits rather than exact numbers.

One test deals with T1, CRF2R (Homo sapiens, UniProt Q13324).
T1 sequence (Q13324 1-411): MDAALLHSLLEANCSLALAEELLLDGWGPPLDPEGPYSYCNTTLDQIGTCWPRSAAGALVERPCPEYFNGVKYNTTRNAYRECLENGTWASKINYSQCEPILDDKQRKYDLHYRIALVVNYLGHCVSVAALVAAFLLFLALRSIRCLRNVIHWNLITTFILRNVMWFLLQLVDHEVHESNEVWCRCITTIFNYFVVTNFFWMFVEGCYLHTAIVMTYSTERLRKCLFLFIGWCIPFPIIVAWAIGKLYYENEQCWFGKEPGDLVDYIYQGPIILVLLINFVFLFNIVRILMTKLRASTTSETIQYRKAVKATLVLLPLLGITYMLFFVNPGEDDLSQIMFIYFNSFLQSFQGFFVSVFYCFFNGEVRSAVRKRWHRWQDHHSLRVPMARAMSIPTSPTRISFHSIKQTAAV
As to the kind of experiment: CRF2R agonist activation (EC50 / Emax), called comparative CRF binding. Conditions: for Emax: read-out: CRF2R Emax. The class given is cell-based. A digest of the protocol: (§1)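 Cells expressing human CRF1R or CRF2R are exposed to peptide or vehicle control, and receptor activation is read as cAMP induction, measured in cell lysates or via a CRE-linked reporter gene.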

The target of a further test is T2, CRF1R (Homo sapiens, UniProt P34998).
T2 sequence (P34998 24-415): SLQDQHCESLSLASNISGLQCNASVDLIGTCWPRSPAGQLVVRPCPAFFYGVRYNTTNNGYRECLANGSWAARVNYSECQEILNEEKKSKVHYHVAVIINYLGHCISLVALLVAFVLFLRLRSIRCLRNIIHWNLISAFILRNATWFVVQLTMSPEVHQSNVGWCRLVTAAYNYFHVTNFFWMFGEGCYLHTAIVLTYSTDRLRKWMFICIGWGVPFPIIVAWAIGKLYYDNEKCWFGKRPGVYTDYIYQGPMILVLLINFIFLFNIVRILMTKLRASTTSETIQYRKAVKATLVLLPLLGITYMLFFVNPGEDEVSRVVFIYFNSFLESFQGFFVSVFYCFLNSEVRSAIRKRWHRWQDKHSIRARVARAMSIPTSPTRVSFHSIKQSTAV
As to the kind of experiment: CRF1R agonist activation (EC50 / Emax), called comparative CRF binding. The class given is cell-based. Particulars: for EC50: CRF1R EC50; for Emax: read-out: CRF1R Emax. The essentials:
as §1

One may read the EC50 as the midpoint of the concentration-response curve. By Emax is commonly meant the greatest response seen or fitted, relative to the assay's reference. Take `CC[C@H](C)[C@H](NC(=O)[C@H](CCC(=O)O)NC(=O)[C@@H](NC(=O)[C@@H](NC(=O)[C@H](CCCCN)NC(=O)[C@H](CCCNC(=N)N)NC(=O)[C@H](CC(C)C)NC(=O)[C@H](CC(C)C)NC(=O)[C@H](CCC(N)=O)NC(=O)[C@H](Cc1ccccc1)NC(=O)[C@@H]1CCCN1C(=O)[C@H](CC(C)C)NC(=O)[C@H](CC(=O)O)NC(=O)[C@@H](NC(=O)[C@H](CO)NC(=O)[C@@H](NC(=O)[C@@H]1CCCN1C(=O)[C@@H]1CCCN1C(=O)CNC(=O)[C@@H]1CCC(=O)N1)[C@@H](C)CC)[C@@H](C)CC)C(C)C)[C@@H](C)CC)C(=O)N[C@@H](CCC(=O)O)C(=O)N[C@@H](CCCCN)C(=O)N[C@@H](CCC(N)=O)C(=O)N[C@@H](CCC(=O)O)C(=O)N[C@@H](CCCCN)C(=O)N[C@@H](CCC(=O)O)C(=O)N[C@@H](CCCCN)C(=O)N[C@@H](CCC(N)=O)C(=O)N[C@@H](CCC(N)=O)C(=O)N[C@@H](C)C(=O)N[C@H](C(=O)N[C@H](C(=O)N[C@@H](CC(N)=O)C(=O)N[C@@H](C)C(=O)N[C@@H](CCCNC(=N)N)C(=O)N[C@@H](CC(C)C)C(=O)N[C@@H](CC(C)C)C(=O)N[C@@H](CC(=O)O)C(=O)N[C@@H](CCCNC(=N)N)C(=O)N[C@H](C(N)=O)C(C)C)[C@@H](C)O)[C@@H](C)O` [compound 351]: on CRF2R, a half-maximal response (EC50) required 12.9 nM and the Emax turned out to be 97.4%. Besides, on CRF1R, the EC50 is ≥ 1000 nM and the Emax amounted to 85.7%.
On to `CC[C@H](C)[C@H](NC(=O)[C@H](CCCNC(=N)N)NC(=O)[C@H](C)NC(=O)[C@H](CC(C)C)NC(=O)[C@H](CC(C)C)NC(=O)[C@H](CCCNC(=N)N)NC(=O)[C@H](C)NC(=O)[C@H](CC(N)=O)NC(=O)[C@H](CC(N)=O)NC(=O)[C@H](C)NC(=O)[C@H](C)NC(=O)[C@H](CCC(N)=O)NC(=O)[C@H](CCC(N)=O)NC(=O)[C@H](CCCCN)NC(=O)[C@H](CCC(=O)O)NC(=O)[C@H](CCCCN)NC(=O)[C@H](CCC(=O)O)NC(=O)[C@H](CCC(N)=O)NC(=O)[C@H](CCCCN)NC(=O)[C@H](CCC(=O)O)NC(=O)[C@@H](NC(=O)[C@H](CCC(=O)O)NC(=O)[C@@H](NC(=O)[C@@H](NC(=O)[C@H](CCCCN)NC(=O)[C@H](CCCNC(=N)N)NC(=O)[C@H](CC(C)C)NC(=O)[C@H](CC(C)C)NC(=O)[C@H](CCC(N)=O)NC(=O)[C@H](Cc1ccccc1)NC(=O)[C@@H]1CCCN1C(=O)[C@H](CC(C)C)NC(=O)[C@H](CC(=O)O)NC(=O)[C@@H](NC(=O)[C@H](CO)NC(=O)[C@@H](NC(=O)[C@@H]1CCCN1C(=O)[C@@H]1CCCN1C(=O)CNC(=O)[C@@H]1CCC(=O)N1)[C@@H](C)CC)[C@@H](C)CC)C(C)C)[C@@H](C)CC)[C@@H](C)CC)C(N)=O` [compound 279], for which the Emax on CRF2R came to 100%; at CRF1R, 93%.
In the same order, the values of `CC[C@H](C)[C@H](NC(=O)[C@H](CCC(=O)O)NC(=O)[C@@H](NC(=O)[C@H](CCSC)NC(=O)[C@H](CCCCN)NC(=O)[C@H](CCCNC(=N)N)NC(=O)[C@H](CC(C)C)NC(=O)[C@H](CC(C)C)NC(=O)[C@H](Cc1c[nH]cn1)NC(=O)[C@H](CC(C)C)NC(=O)[C@@H]1CCCN1C(=O)[C@H](CC(C)C)NC(=O)[C@H](CC(=O)O)NC(=O)[C@@H](NC(=O)[C@H](CO)NC(=O)[C@@H](NC(=O)[C@@H]1CCCN1C(=O)[C@@H]1CCCN1C(=O)CNC(=O)[C@@H]1CCC(=O)N1)[C@@H](C)CC)[C@@H](C)CC)[C@@H](C)CC)C(=O)N[C@@H](CCC(=O)O)C(=O)N[C@@H](CCCCN)C(=O)N[C@@H](CCC(N)=O)C(=O)N[C@@H](CCC(=O)O)C(=O)N[C@@H](CCCCN)C(=O)N[C@@H](CCC(=O)O)C(=O)N[C@@H](CCCCN)C(=O)N[C@@H](CCC(N)=O)C(=O)N[C@@H](CCC(N)=O)C(=O)N[C@@H](C)C(=O)N[C@H](C(=O)N[C@H](C(=O)N[C@@H](CC(N)=O)C(=O)N[C@@H](C)C(=O)N[C@@H](CCCNC(=N)N)C(=O)N[C@@H](CC(C)C)C(=O)N[C@@H](CC(C)C)C(=O)N[C@@H](CC(=O)O)C(=O)N[C@@H](CCCNC(=N)N)C(=O)N[C@H](C(N)=O)C(C)C)[C@@H](C)O)[C@@H](C)O` [compound 239] are 100% and 80%.
In the same order, the values of `CC[C@H](C)[C@H](NC(=O)[C@H](CCC(=O)O)NC(=O)[C@@H](NC(=O)[C@H](CCSC)NC(=O)[C@H](CCCCN)NC(=O)[C@H](CCCNC(=N)N)NC(=O)[C@H](CC(C)C)NC(=O)[C@H](CC(C)C)NC(=O)[C@H](Cc1c[nH]cn1)NC(=O)[C@H](CC(C)C)NC(=O)[C@@H]1CCCN1C(=O)[C@H](CC(C)C)NC(=O)[C@H](CC(=O)O)NC(=O)[C@@H](NC(=O)[C@H](CO)NC(=O)[C@@H](NC(=O)[C@@H]1CCCN1C(=O)[C@@H]1CCCN1C(=O)CNC(=O)[C@@H]1CCC(=O)N1)[C@@H](C)CC)[C@@H](C)CC)[C@@H](C)CC)C(=O)N[C@@H](CCC(=O)O)C(=O)N[C@@H](CCCCN)C(=O)N[C@@H](CCC(N)=O)C(=O)N[C@@H](CCC(=O)O)C(=O)N[C@@H](CCCCN)C(=O)N[C@@H](CCC(=O)O)C(=O)N[C@@H](CCCCN)C(=O)N[C@@H](CCC(N)=O)C(=O)N[C@@H](CCC(N)=O)C(=O)N[C@@H](C)C(=O)N[C@H](C(=O)N[C@H](C(=O)N[C@@H](CC(N)=O)C(=O)N[C@@H](C)C(=O)N[C@@H](CCCNC(=N)N)C(=O)N[C@@H](CC(C)C)C(=O)N[C@@H](CC(C)C)C(=O)N[C@@H](CC(=O)O)C(=O)N[C@H](C(=O)N[C@H](C(N)=O)C(C)C)[C@@H](C)O)[C@@H](C)O)[C@@H](C)O` [compound 238] are 100% and 88%.
Regarding `CC[C@H](C)[C@H](NC(=O)[C@H](CCC(N)=O)NC(=O)[C@H](C)NC(=O)[C@H](CC(C)C)NC(=O)[C@H](CC(C)C)NC(=O)[C@H](CCC(N)=O)NC(=O)[C@H](C)NC(=O)[C@H](CC(N)=O)NC(=O)[C@H](CC(N)=O)NC(=O)[C@H](C)NC(=O)[C@H](C)NC(=O)[C@H](CCC(N)=O)NC(=O)[C@H](CCC(N)=O)NC(=O)[C@H](CCCCN)NC(=O)[C@H](CCC(=O)O)NC(=O)[C@H](CCCCN)NC(=O)[C@H](CCC(=O)O)NC(=O)[C@H](CCC(N)=O)NC(=O)[C@H](CCCCN)NC(=O)[C@H](CCC(=O)O)NC(=O)[C@@H](NC(=O)[C@H](CCC(=O)O)NC(=O)[C@@H](NC(=O)[C@@H](NC(=O)[C@H](CCCCN)NC(=O)[C@H](CCCNC(=N)N)NC(=O)[C@H](CC(C)C)NC(=O)[C@H](CC(C)C)NC(=O)[C@H](CCC(N)=O)NC(=O)[C@H](Cc1ccccc1)NC(=O)[C@@H]1CCCN1C(=O)[C@H](CC(C)C)NC(=O)[C@H](CC(=O)O)NC(=O)[C@@H](NC(=O)[C@H](CO)NC(=O)[C@@H](NC(=O)[C@@H]1CCCN1C(=O)[C@@H]1CCCN1C(=O)CNC(=O)[C@@H]1CCC(=O)N1)[C@@H](C)CC)[C@@H](C)CC)C(C)C)[C@@H](C)CC)[C@@H](C)CC)C(N)=O` [compound 276], at CRF2R, the response was half-maximal at 22.1 nM (EC50) and the Emax turned out to be 100%. At CRF1R, the EC50 was ≥ 1000 nM and the Emax amounted to 75.7%.
In the case of `CC[C@H](C)[C@H](NC(=O)[C@@H](NC(=O)[C@H](CC(=O)O)NC(=O)[C@H](CC(C)C)NC(=O)[C@H](CC(C)C)NC(=O)[C@H](CC(C)C)NC(=O)[C@H](CCCNC(=N)N)NC(=O)[C@H](CC(N)=O)NC(=O)[C@H](CC(N)=O)NC(=O)[C@H](C)NC(=O)[C@H](C)NC(=O)[C@H](CCC(N)=O)NC(=O)[C@H](CCC(N)=O)NC(=O)[C@H](CCCCN)NC(=O)[C@H](CCC(=O)O)NC(=O)[C@H](CCCCN)NC(=O)[C@H](CCC(=O)O)NC(=O)[C@H](CCC(N)=O)NC(=O)[C@H](CCCCN)NC(=O)[C@H](CCC(=O)O)NC(=O)[C@@H](NC(=O)[C@H](CCC(=O)O)NC(=O)[C@@H](NC(=O)[C@H](CCSC)NC(=O)[C@H](CCCCN)NC(=O)[C@H](CCCNC(=N)N)NC(=O)[C@H](CC(C)C)NC(=O)[C@H](CC(C)C)NC(=O)[C@@H](NC(=O)[C@H](Cc1ccccc1)NC(=O)[C@@H]1CCCN1C(=O)[C@H](CC(C)C)NC(=O)[C@H](CC(=O)O)NC(=O)[C@@H](NC(=O)[C@H](CO)NC(=O)[C@@H](NC(=O)[C@@H]1CCCN1C(=O)[C@@H]1CCCN1C(=O)CNC(=O)[C@@H]1CCC(=O)N1)[C@@H](C)CC)[C@@H](C)CC)C(C)C)[C@@H](C)CC)[C@@H](C)CC)[C@@H](C)O)C(N)=O` [compound 190], the Emax came out at 31% on CRF2R and 9% at CRF1R.
